Source: PubChem BioAssay AID1671194 (National Center for Advancing Translational Sciences (NCATS), 2021)
Only a part is listed here, and it is no random draw. Inconclusive results are not listed. Activity calls are given as the source filed them. Calls come from the whole dose curve; as a rule, active = well fitted inhibition curve with a large enough effect; inconclusive = small, poorly fitted or top-dose-only effect; inactive = no such curve, though single readings can be large or run the other way.

Test: Primary qHTS assay for inhibitors of alpha-synuclein gene (SNCA) expression; note: nearly all actives have a fitted effect of over 45% in size
Conditions: HEK-293 SNCA-luciferase knock-in, luminescence, 24 h; at 57.2 µM (top of the series) unless noted
Description: Assay Submitter (PI): Daniel R. Scoles Ph.D.
Department of Neurology, University of Utah, Salt Lake City, Utah
Accumulation of alpha-synuclein is a main underlying pathological feature of Parkinson's disease (PD) and alpha-synucleinopathies, for which lowering expression of the alpha-synuclein gene (SNCA) is a potential therapeutic avenue. Using a cell-based luciferase reporter of SNCA expression we performed a quantitative high throughput screen (qHTS) of 155,885 compounds in dose response. The screening assay was generated using genome editing to insert the luciferase gene downstream and in frame of the SNCA gene in HEK-293 cells (1). A viability counterscreen using GF-AFC was used to eliminate cytotoxic and false positive compounds. After in silico analysis (clustering, removal of frequent hitter nuisance chemotypes), inhibitor compounds from the primary screen were selected for follow up and re-tested at 11-doses in the SNCA-luc cells (luciferase and GF-AFC confirmation), and in CMV-luc expressing cell line to flag general transcriptional repressors.
Described herein are the results of the primary screen for SNCA inhibitors; decrease in luciferase signal (inhibition of the SNCA gene expression) is the desired output for this assay.
1. Dansithong, W., Paul, S., Scoles, D. R., Pulst, S. M., and Huynh, D. P. (2015) Generation of SNCA Cell Models Using Zinc Finger Nuclease (ZFN) Technology for Efficient High-Throughput Drug Screening. PLoS ONE 10, e0136930.
SEQUENCE No. (e.g., 1, 2, 3, etc.); […] (e.g., Cells, Incubation, Reagent, etc.); VALUE; DESCRIPTION
1; Cells; 4 uL; Dispense 1500 HEK-293-SNCA-luc cells/well into Greiner 1536-well white / solid bottom tissue culture treated plate. The plate was covered with metal lids with gas-exchange holes.
2; Incubate; 24 hours; Incubate at 37C, 5% CO2, 95% RH.
3; Compounds; 23 nL; Compounds and controls were transferred via a Kalypsys Pin Tool (Wako USA) equipped with a 1536-slotted pin array. The plate was covered with metal lids with gas-exchange holes.
4; Incubate; 24 hours; Incubate at 37C, 5% CO2, 95% RH.
5; Dispense; 1 uL; Dispense Gly-Phe-7-amino-4-trifluoromethylcoumarin (GF-AFC, prepared at 125 uM in PBS) was added. The plate was covered with metal lids with gas-exchange holes.
6; Incubate; 30 min; Incubate at 37C, 5% CO2.
7; Detector; Fluorescence; Measure fluorescence with ViewLux microplate reader (PerkinElmer) equipped with 405/10 excitation and 540/25 emission filters.
8; Dispense; 3 uL; Dispense ONE-Glo ([…]) lucifase detection reagent was added to each well. Plates were covered with metal lids with gas-exchange holes.
9; Incubate; 15 min; Incubate at room temperature.
10; Detector; Luminescence; Measure luminescence with ViewLux microplate reader (PerkinElmer) equipped with clear filters.
NOTES (numbers refer to sequence above)
1; HEK-293-SNCA-luc were cultured and suspended in phenol-red free DMEM (4.5 g/L glucose, 25 mM HEPES, cat #21063 (Thermo)).
3; Compounds were added to the assay plate in an 11-point intra plate dose response, 1:3 titration in DMSO with a final concentration range of […]. Vehicle-only plates, with DMSO being pin-transferred to every well, were inserted at the beginning of screening runs to confirm expected assay performance. Activity was normalized to wells containing medium only (-100% activity, full inhibition) and SNCA-luc cells treated with DMSO vehicle control (0% activity), contained on the same plate as test samples.
10; Signals were analyzed, and dose-response curves were fit using the Hill equation. Compounds in curve classes -1.1, -1.2, -2.1, -2.2 in the SNCA-luc assay were considered active. Compounds were eliminated from further consideration if also active (curve class -1.1, -1.2, -1.3, -1.4, -2.1, -2.2, -2.3, -2.4) in the GF-AFC cytotoxicity assay.

| SMILES | activity change, negative = inhibition |
| --- | --- |
| CCC(=O)N(c1ccccc1)C1CCNCC1 | inactive: 22.7% [at 25.6 µM] |
| O=C(NCC1(N2CCOCC2)CCCCC1)c1ccc([N+](=O)[O-])cc1 | inactive: -6.38% |
| O=C(NCC1(N2CCOCC2)CCCCC1)c1ccccc1[N+](=O)[O-] | inactive: -4.86% |
| O=C(NCC1(N2CCOCC2)CCCCC1)c1ccccc1 | inactive: 13.1% |
| CN(C)C1(CNC(=O)c2ccc(C(C)(C)C)cc2)CCCCC1 | inactive: 43.6% |
| CC(C)(C)c1ccc(C(=O)NCC2(N3CCOCC3)CCCCC2)cc1 | inactive: -29.9% |
| Cc1ccccc1C(=O)NCC1(N(C)C)CCCCC1 | inactive: 20.9% |
| COc1cc(C(=O)NCC2(N3CCOCC3)CCCCC2)cc(OC)c1OC | inactive: 30.2% |
| CCOC(=O)N1CCC(=O)CC1 | inactive: -1.26% [at 25.6 µM] |
| O=C(NCC1(N2CCOCC2)CCCCC1)c1ccc(Cl)cc1 | inactive: -26.8% |
| COc1ccccc1C(=O)NCC1(N2CCOCC2)CCCCC1 | inactive: 0.272% |
| CCOC(=O)C(=O)CBr | inactive: -21.4% |
| CCOc1ccc(C(=O)NCC2(N3CCOCC3)CCCCC2)cc1 | inactive: -23.9% |
| O=C(NCC1(N2CCOCC2)CCCCC1)c1ccccc1Br | inactive: -7.7% |
